Experimental data reported in ChEMBL document CHEMBL4706706, “Structure-activity relationship and mechanistic studies for a series of cinnamyl hydroxamate histone deacetylase inhibitors” (Bioorg Med Chem, 2021).

Amino acid sequences for entries named in this document (tags omitted).
UniProt Q13547, whole entry: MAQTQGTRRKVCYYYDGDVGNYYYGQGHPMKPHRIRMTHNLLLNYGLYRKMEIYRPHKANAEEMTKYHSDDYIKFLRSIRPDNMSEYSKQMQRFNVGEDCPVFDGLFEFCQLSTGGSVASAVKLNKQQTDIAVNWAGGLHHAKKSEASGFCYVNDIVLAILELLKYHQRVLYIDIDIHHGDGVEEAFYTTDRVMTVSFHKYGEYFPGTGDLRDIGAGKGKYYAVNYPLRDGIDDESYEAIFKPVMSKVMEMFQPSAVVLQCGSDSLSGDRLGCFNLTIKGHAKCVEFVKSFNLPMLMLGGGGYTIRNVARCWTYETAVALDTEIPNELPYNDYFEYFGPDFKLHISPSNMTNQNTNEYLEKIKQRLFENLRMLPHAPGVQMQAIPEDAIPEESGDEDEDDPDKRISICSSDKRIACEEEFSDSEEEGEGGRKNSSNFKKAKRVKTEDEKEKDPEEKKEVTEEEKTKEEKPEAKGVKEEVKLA

Biological target: Histone deacetylase 1 (Homo sapiens, UniProt Q13547)
Assay: Inhibition of recombinant human full-length C-terminal FLAG/His-tagged HDAC1 (1 to 482 residues) expressed in baculovirus infected Sf9 insect cells using RHKK(Ac)AMC as substrate preincubated for 5 to 10 mins followed by substrate addition and measured after 2 hrs by fluorescence assay

IC50: 3.26 µM
Compound: O=C(/C=C/c1ccc(NC(=O)Nc2ccc(Cl)cc2)cc1)NO
